# According to ChEMBL document CHEMBL1144677, “Novel quinazolinone derivatives as 5-HT7 receptor ligands” (Bioorg Med Chem, 2008):
# Amino acid sequences for entries named in this document (tags omitted). A change or cut given only in a name is not applied to a line headed by its entry.
# UniProt P28335: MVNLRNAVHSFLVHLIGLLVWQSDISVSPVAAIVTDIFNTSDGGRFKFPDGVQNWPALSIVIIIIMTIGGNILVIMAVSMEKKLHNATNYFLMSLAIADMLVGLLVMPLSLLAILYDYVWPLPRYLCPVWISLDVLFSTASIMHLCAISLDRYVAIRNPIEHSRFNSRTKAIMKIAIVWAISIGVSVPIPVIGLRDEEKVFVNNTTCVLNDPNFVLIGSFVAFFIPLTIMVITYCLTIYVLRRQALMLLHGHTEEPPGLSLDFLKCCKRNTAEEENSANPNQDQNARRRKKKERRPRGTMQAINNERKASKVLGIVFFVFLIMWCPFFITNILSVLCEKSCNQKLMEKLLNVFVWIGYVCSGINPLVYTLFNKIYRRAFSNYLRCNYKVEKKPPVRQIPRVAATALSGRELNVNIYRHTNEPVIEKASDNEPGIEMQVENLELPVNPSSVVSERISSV
# pIC50: −log10 of the molar value.
# Target: 5-hydroxytryptamine receptor 2C (Homo sapiens, UniProt P28335)
smiles,measurement,value
Cc1cccc(N2CCN(CCCC(=O)NCc3nc4ccccc4c(=O)n3-c3ccccc3)CC2)c1C,pIC50,6.34
